US11555029B2, “PD-1/PD-L1 inhibitors” (Gilead Sciences, Inc., priority 2018, dated 2023)

Conditions: all doses, entire study

With `COc1nc(-c2cccc(-c3cccc(-c4cnc(CNC[C@@H]5CCC(=O)N5)c(OC)n4)c3Cl)c2Cl)cnc1CNC[C@@H]1CCC(=O)N1` [compound 139] the “effect on body weight” value (listed as Compound 139) was “no effect”, the tolerability (listed as Compound 139) was “well tolerated” and the “effect on body weight” value (listed as compound 139) was “no treatment-related effect”. The tolerability (listed as compound 139) was “well-tolerated”.

Where two headings read alike, the source gives them in different places.
